Values quoted from earlier work as cited in PMC6481172.

Chains of the proteins cited; added tags and fusions are not shown.
UniProt Q93009, whole entry: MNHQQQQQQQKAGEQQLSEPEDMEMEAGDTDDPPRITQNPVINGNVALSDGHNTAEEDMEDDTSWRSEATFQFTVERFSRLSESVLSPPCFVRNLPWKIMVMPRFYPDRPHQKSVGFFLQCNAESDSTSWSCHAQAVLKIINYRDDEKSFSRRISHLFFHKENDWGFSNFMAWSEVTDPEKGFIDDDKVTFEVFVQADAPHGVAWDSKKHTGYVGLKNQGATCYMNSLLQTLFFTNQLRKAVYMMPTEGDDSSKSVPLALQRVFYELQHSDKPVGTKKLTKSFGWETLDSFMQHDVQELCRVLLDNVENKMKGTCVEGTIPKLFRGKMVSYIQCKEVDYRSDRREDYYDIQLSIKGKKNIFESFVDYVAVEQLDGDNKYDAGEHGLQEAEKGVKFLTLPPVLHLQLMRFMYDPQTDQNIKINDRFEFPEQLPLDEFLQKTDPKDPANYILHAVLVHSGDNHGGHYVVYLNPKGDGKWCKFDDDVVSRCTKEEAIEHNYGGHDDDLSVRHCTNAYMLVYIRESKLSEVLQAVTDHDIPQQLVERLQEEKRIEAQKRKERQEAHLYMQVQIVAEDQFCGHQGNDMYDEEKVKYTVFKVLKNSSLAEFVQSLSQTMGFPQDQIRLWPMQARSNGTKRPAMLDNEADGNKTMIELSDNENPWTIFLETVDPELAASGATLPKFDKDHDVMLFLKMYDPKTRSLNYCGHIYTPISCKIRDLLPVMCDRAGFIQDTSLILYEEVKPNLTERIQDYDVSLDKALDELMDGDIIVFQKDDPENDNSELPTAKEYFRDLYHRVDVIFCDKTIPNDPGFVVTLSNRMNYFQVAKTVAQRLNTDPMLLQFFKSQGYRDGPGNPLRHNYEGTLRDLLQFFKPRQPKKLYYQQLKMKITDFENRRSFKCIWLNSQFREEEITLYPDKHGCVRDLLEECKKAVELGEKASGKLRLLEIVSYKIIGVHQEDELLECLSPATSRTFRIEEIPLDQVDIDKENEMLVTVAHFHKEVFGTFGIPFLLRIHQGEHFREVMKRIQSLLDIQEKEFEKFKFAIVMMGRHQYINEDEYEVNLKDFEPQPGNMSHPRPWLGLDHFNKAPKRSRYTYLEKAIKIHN

Biological target: ubiquitin (Homo sapiens) (UniProt P0CG47)
Experiment: NMR

Kd: 106 µM
Substance: USP7 (from UniProt Q93009)
